Patent publication US9296745B2, “Diacylglycerol acyltransferase 2 inhibitors” (Pfizer Inc., priority 2012, dated 2016)
pIC50: −log10 of the molar value.

The chains behind the UniProt entries cited, without tags or fusion partners. Where a name states a change or a piece, a line headed by the entry shows the natural chain unless it says otherwise.
UniProt Q96PD7: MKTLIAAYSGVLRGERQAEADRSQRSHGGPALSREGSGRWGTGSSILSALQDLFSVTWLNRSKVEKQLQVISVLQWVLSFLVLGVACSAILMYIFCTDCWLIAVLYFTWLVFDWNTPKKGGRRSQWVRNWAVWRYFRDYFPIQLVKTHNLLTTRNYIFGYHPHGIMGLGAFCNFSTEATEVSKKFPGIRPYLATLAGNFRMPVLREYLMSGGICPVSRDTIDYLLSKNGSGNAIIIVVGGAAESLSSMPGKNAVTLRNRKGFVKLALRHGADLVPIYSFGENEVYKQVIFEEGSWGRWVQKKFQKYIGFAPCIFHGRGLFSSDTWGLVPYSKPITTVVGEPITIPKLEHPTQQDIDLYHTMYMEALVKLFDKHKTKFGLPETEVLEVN

Biological target: Human DGAT2 (hDGAT2) (Homo sapiens (Human), UniProt Q96PD7)
Experiment: In vitro DGAT2 assay, IC50 determination with hDGAT2 membrane fraction
Type: biochemical
Details: geometric mean; background for complete inhibition of DGAT2 obtained with 50 μM (1R,2R)-2-({3′-Fluoro-4′-[(6-fluoro-1,3-benzothiazol-2-yl)amino]-1,1′-biphenyl-4-yl}carbonyl)cyclopentanecarboxylic acid
Experimental: Recombinant baculovirus for the FLAG-tagged hDGAT2 was generated in SF9 insect cells using Bac-to-Bac baculovirus expression system (Invitrogen) according to the manufacturer's protocol. For the expression of hDGAT2, SF9 cells (20 L) grown in Sf900II media were infected with hDGAT2 baculovirus at a multiplicity of infection of 1 in a Wave Bioreactor System 20/50P wave bag (GE Healthcare). After 40 hours of infection, the cells were then harvested by centrifugation at 5,000×g. The cell pellets were washed by resuspending in phosphate buffered saline (PBS) and collected by centrifugation at 5,000×g. The cell paste was flash frozen in liquid N2 and stored at −80° C. until needed. All operations below were at 4° C. unless otherwise noted. […]
To 1 μL of compounds dissolved in 100% DMSO and spotted at the bottom of each well, 5 μL of 0.04% bovine serum albumin (BSA) (fatty acid free, Sigma Aldrich) was added and the mixture was incubated at room temperature for 20 minutes. […] Plates were centrifuged at 2,000×g for 1 min in an Allegra 6R Centrifuge (Beckman Coulter) and then were sealed again with fresh covers before reading in a 1450 Microbeta Wallac Trilux Scintillation Counter (Perkin Elmer). DGAT2 activity was measured by quantifying the generated product [^14C]tridecanoylglycerol in the upper organic phase. […]

| Structure (SMILES) | pIC50 |
| --- | --- |
| O=C([C@@H]1CCCN(c2ccc3nc(C4(Cc5ccccc5)CC4)[nH]c3n2)C1)N1CCCC1 [Example 83, (R)-(1-(2-(1-Benzylcyclopropyl)-3H-imidazo[4,5-b]pyridin-5-yl)piperidin-3-yl)(pyrrolidin-1-yl)methanone] | 6.89 |
| C[C@H](c1nc2ccc(N3CCC[C@@H](C(=O)N4CCCC4)C3)nc2[nH]1)n1cc(F)cn1 [Example 192, ((R)-1-(2-((R)-1-(4-Fluoro-1H-pyrazol-1-yl)ethyl)-3H-imidazo[4,5-b]pyridin-5-yl)piperidin-3-yl)(pyrrolidin-1-yl)methanone] | 7.05 |
